Source: ChEMBL document CHEMBL3992538, “Hybrids of thienopyrimidinones and thiouracils as anti-tubercular agents: SAR and docking studies” (Eur J Med Chem, 2017)

What was measured:
Assay type in all cases: toxicity, cell-based
[1] = Selectivity index, ratio of GI50 for human A549 cells to MIC for dormant stage of Mycobacterium tuberculosis H37Ra ATCC 25177 infected in human THP1 cells; details: read-out: Selectivity Index
Method in brief: (§1)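 Selectivity index is the cytotoxic GI50 against the named human cell line divided by the antimycobacterial value. Activity counted as specific when SI >10.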

[2] = Selectivity index, ratio of GI50 for human HeLa cells to MIC for dormant stage of Mycobacterium tuberculosis H37Ra ATCC 25177 infected in human THP1 cells; details: read-out: Selectivity Index; method in brief: as §1
[3] = Selectivity index, ratio of GI50 for human PANC1 cells to MIC for dormant stage of Mycobacterium tuberculosis H37Ra ATCC 25177 infected in human THP1 cells; details: PANC-1 cells, read-out: Selectivity Index; method in brief: as §1

Measured: selectivity ratio

CO[C@H]1/C=C/O[C@@]2(C)Oc3c(C)c(O)c4c(O)c(c(/C=N/N5CCN(C)CC5)c(O)c4c3C2=O)NC(=O)/C(C)=C\C=C\[C@H](C)[C@H](O)[C@@H](C)[C@@H](O)[C@@H](C)[C@H](OC(C)=O)[C@@H]1C [RIFAMPIN]
133: all assays above
